{
  "source": "PubChem BioAssay AID1347070",
  "about": "(National Center for Advancing Translational Sciences (NCATS), 2019)",
  "note": "Only a part is listed here, and it is no random draw. Some tests of the compounds listed are not included; inactive here does not mean inactive elsewhere. Calls of active or inactive are those of the source. The call rests on the fitted dose curve; in most records, active means well fitted activation curve with a large enough effect; inconclusive means small, poorly fitted or top-dose-only effect; inactive means flat fitted curve, though single readings scatter.",
  "data": [
    {"experiment": "qHTS of alpha-syn Inhibitors: NCGC Sytravon Library Screen; further: 0% is about no effect", "settings": "S. cerevisiae alpha-synuclein toxicity rescue, BacTiter-Glo growth, 24 h; at 46.1 µM (top of the series)", "text": "The goal of this project is to identify new chemical probes capable of reversing the toxicity associated with the Parkinson disease-related protein, alpha-synuclein. Compounds will be selected on their ability to restore growth in yeast cells expressing toxic levels of alpha-synuclein. These compounds will provide a complementary approach to deciphering the tangled mechanisms of toxicity and protection that we have uncovered through genome-wide genetic screens and are beginning to uncover in a large-scale proteomics analysis with mass spectroscopy. To this end, a miniaturized assay was developed to be screened against the Molecular Libraries Small Molecule Repository (MLSMR) to discover alpha-synuclein inhibitors. […] The phenotype of interest will be that of an Activator and this screen is run against the NCGC Sytravon Library collection. NIH Chemical Genomics Center [NCGC] NIH Molecular Libraries Probe Centers Network [MLPCN] MLPCN Grant: NS060957 Assay Submitter (PI): Susan Lindquist, Whitehead Institute/MIT\nDispense 2.5 microL yeast galactose medium per 1536-well plate, pin compound, dispense 2.5 microL alpha-synuclein expressing yeast in galactose medium at OD600=0.02 (pregrown in raffinose medium to mid-log phase) per well, incubate for 24 hr at 30 deg C, and cell growth will be measured using 5 microL of Bactiter/Glo reagent to entire plate and read using Luminescence Protocol in ViewLux.", "values": [
      {"smiles": "O=C(NCC1(N2CCCCC2)CCCCC1)c1cccc(Br)c1", "growth rescue (activation)": "inactive: 9.06%"},
      {"smiles": "Cc1cc(C(=O)NCC2(N3CCCCC3)CCCCC2)ccc1[N+](=O)[O-]", "growth rescue (activation)": "inactive: -1.89%"},
      {"smiles": "CCOc1cccc(C(=O)NCC2(N(C)C)CCCCC2)c1", "growth rescue (activation)": "inactive: 3.9%"},
      {"smiles": "CN(C)C1(CNC(=O)c2ccccc2[N+](=O)[O-])CCCCC1", "growth rescue (activation)": "inactive: -2.13%"},
      {"smiles": "CCCCOc1ccccc1C(=O)NCC1(N(C)C)CCCCC1", "growth rescue (activation)": "inactive: -29.3%"},
      {"smiles": "CN(C)C1(CNC(=O)c2cccc(Cl)c2)CCCCC1", "growth rescue (activation)": "inactive: 3.74%"},
      {"smiles": "CCN(CC)CC(C)C(C)OC(=O)C(O)(c1ccccc1)c1ccccc1", "note": "(configuration not stated)", "growth rescue (activation)": "inactive: -1.13%"},
      {"smiles": "CN(C)C1(CNC(=O)c2ccccc2F)CCCCC1", "growth rescue (activation)": "inactive: -10.7%"},
      {"smiles": "Cc1ccc(C(=O)NCC2(N3CCCCC3)CCCCC2)cc1", "growth rescue (activation)": "inactive: -5.65%"},
      {"smiles": "COc1cc(C(=O)NCC2(N(C)C)CCCCC2)cc(OC)c1OC", "growth rescue (activation)": "inactive: 2.4%"},
      {"smiles": "Cc1cccc(C(=O)NCC2(N(C)C)CCCCC2)c1", "growth rescue (activation)": "inactive: 1.03%"},
      {"smiles": "C=C(C)C#CC(O)(C(=O)OC1CCN(C)CC1)c1ccccc1", "note": "(configuration not stated)", "growth rescue (activation)": "inactive: -5.35%"},
      {"smiles": "CC(C)Oc1ccc(C(=O)NCC2(N(C)C)CCCCC2)cc1", "growth rescue (activation)": "inactive: 0.371%"},
      {"smiles": "COc1cccc(C(=O)NCC2(N3CCOCC3)CCCCC2)c1", "growth rescue (activation)": "inactive: -9.71%"},
      {"smiles": "CC(C)COc1ccc(C(=O)NCC2(N(C)C)CCCCC2)cc1", "growth rescue (activation)": "inactive: -51.1%"},
      {"smiles": "COc1ccc(C(=O)NCC2(N(C)C)CCCCC2)cc1Cl", "growth rescue (activation)": "inactive: 0.446%"},
      {"smiles": "CN(C)C1(CNC(=O)c2ccc(Br)cc2)CCCCC1", "growth rescue (activation)": "inactive: -6.38%"}
    ]}
  ]
}
